Measurements from BindingDB's records for doi:10.1021/acs.jmedchem.0c01741 (Zhengzhou University, 2020).

Test: Inhibition of ABCB1 in multidrug-resistant human SW620/Ad300 cells assessed as increase in reversal of resistance to paclitaxel-induced cytotoxicity by measuring paclitaxel IC50 pre-incubated for 4 hrs followed by paclitaxel addition and measured after 72 hrs by MTT assay (Rvb = 4.23 +/- 0.6 uM)

| SMILES | IC50 [nM] |
| --- | --- |
| Cc1cc(Nc2ccc(Cl)cc2)n2nc(SCc3nc4ccccc4[nH]3)nc2n1 | 270 |
| Cc1cc(Nc2ccc(F)cc2)n2nc(SCc3ccccc3)nc2n1 | 1040 |
